Results reported in ChEMBL document CHEMBL4828746, “Design, synthesis and evaluation of heteroaryldihydropyrimidine analogues bearing spiro ring as hepatitis B virus capsid protein inhibitors” (Eur J Med Chem, 2021).

Assays:
[1] = Cytotoxicity against human HepDES19 cells assessed as reduction in cell viability measured after 3 days by MTS assay; type: ADME, cell-based; conditions: hepdes19, 72 h, time 3 day
[2] = Selectivity index, ratio of CC50 for human HepDES19 cells to EC50 for inhibition of capsid protein-mediated antiviral activity against HBV infected in human HepDES19 cells assessed as inhibition of DNA replication; type: toxicity, cell-based; conditions: read-out: Ratio CC50/EC50
How it was run: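 SI = mean CC50 / mean EC50, each from three independent 9-point assays. EC50 by strand-preferential qPCR of HBV DNA after 3 days of compound exposure in induced HepDES19 cells.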

CCOC(=O)C1=C(CN2CCC3(CC2)CC(=O)NC3=O)NC(c2nccs2)=NC1c1ccc(F)cc1Br (stereo unspecified)
CC50 [1]: 48.8 µM
selectivity ratio [2]: 71.3

CCOC(=O)C1=C(CN2CCC3(CNC(=O)C3)C2)NC(c2nccs2)=NC1c1ccc(F)cc1Br (stereo unspecified)
CC50 [1]: 69.3 µM
selectivity ratio [2]: 26.6

CCOC(=O)C1=C(CN2CCC3(CC2)CN(C(=O)OC(C)(C)C)C3)NC(c2nccs2)=NC1c1ccc(F)cc1Br (stereo unspecified)
CC50 [1]: > 100 µM
selectivity ratio [2]: > 9.65

CCOC(=O)C1=C(CN2CCC3(C2)CN(C(=O)OC(C)(C)C)C3)NC(c2nccs2)=NC1c1ccc(F)cc1Br (stereo unspecified)
CC50 [1]: > 100 µM
selectivity ratio [2]: > 11.3

CCOC(=O)C1=C(CN2CCC3(CC(=O)N(Cc4ccccc4)C3=O)C2)NC(c2nccs2)=NC1c1ccc(F)cc1Br (stereo unspecified)
CC50 [1]: > 88.4 µM
selectivity ratio [2]: > 42.1

CCOC(=O)C1=C(CN2CCC3(CC2)CNC(=O)C3)NC(c2nccs2)=NC1c1ccc(F)cc1Br (stereo unspecified)
CC50 [1]: > 83.4 µM
selectivity ratio [2]: > 21.9

CCOC(=O)C1=C(CN2CCC3(CCN(C(=O)OC(C)(C)C)C3)C2=O)NC(c2nccs2)=NC1c1ccc(F)cc1Br (stereo unspecified)
CC50 [1]: > 83.4 µM
selectivity ratio [2]: > 16.1

CCOC(=O)C1=C(CN2CC3(CCN(C(=O)OC(C)(C)C)C3)CC2=O)NC(c2nccs2)=NC1c1ccc(F)cc1Br (stereo unspecified)
CC50 [1]: 22.3 µM
selectivity ratio [2]: 2.23

CCOC(=O)C1=C(CN2CCC3(CC2)CNC3=O)NC(c2nccs2)=NC1c1ccc(F)cc1Br (stereo unspecified)
CC50 [1]: > 78.8 µM
selectivity ratio [2]: > 67.4

CCOC(=O)C1=C(CN2CC3(CC2=O)CN(C(=O)OC(C)(C)C)C3)NC(c2nccs2)=NC1c1ccc(F)cc1Br (stereo unspecified)
CC50 [1]: 21.1 µM
selectivity ratio [2]: 1.59

CCOC(=O)C1=C(CN2CCC3(CCN(C(=O)OC(C)(C)C)C3)C2)NC(c2nccs2)=NC1c1ccc(F)cc1Br (stereo unspecified)
CC50 [1]: > 100 µM
selectivity ratio [2]: > 20.7

CCOC(=O)C1=C(CN2CCC3(CCNC3=O)CC2)NC(c2nccs2)=NC1c1ccc(F)cc1Br (stereo unspecified)
CC50 [1]: 58.4 µM
selectivity ratio [2]: 17

CCOC(=O)C1=C(CN2CCC3(CC2)OCCO3)NC(c2nccs2)=NC1c1ccc(F)cc1Br (stereo unspecified)
CC50 [1]: > 87 µM
selectivity ratio [2]: > 435
